The values below are quoted from earlier work in US12102628B2, “Composition and methods for the treatment of myopia” (Seinda Pharmaceutical Guangzhou Corporation, priority 2017, dated 2024).

As a reminder, the logP is the decadic logarithm of the partition coefficient of the neutral form, usually between octanol and water.

Turning to Tiotropium, the logP was −1.8.
